Apparent affinities of Ab-91 variants for a coronavirus HR2 peptide

Reference: Engelhart et al. 2022, doi:10.1038/s41597-022-01779-4. File: FLAb, binding data.

Target: peptide PDVDLGDISGINAS, taken from heptad repeat 2 (HR2) of SARS-CoV-2 spike.

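Phage display of a naive human antibody library on the peptide gave the parent. The library (AAYL51) carries one to three amino acid substitutions per variant, with no insertions or deletions. The assay is AlphaSeq: two haploid yeast populations carry antibody and antigen on their surface. Binding brings cells together so that they mate, and sequencing counts the barcode pairs among the diploids. Each replicate has its own calibration line, from reference interactions of the BCL2 family. Mating was done three times.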

Parent: Ab-91, a human scFv built as VL, a (GGGGS)3 linker, VH. Only the CDRs of the heavy chain vary.
VL: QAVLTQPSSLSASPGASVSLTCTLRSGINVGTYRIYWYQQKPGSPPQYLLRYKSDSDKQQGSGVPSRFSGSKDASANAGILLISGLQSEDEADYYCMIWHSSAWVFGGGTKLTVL
VH: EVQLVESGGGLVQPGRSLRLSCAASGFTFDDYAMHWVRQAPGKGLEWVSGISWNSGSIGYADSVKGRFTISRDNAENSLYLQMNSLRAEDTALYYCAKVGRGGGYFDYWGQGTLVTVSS

The parent's heavy chain CDRs are GFTFDDYAMH, GISWNSGSIGYADSVK, VGRGGGYFDY; each variant's own CDRs replace them letter for letter. Affinities are written as log10 Kd with Kd in nM; a lower number is a better binder. Averages over replicates are reported, and they cover detected replicates only. An entry "ND" has no value in the source: the pair was not observed among the diploids in that replicate. This suggests poor binding but is not conclusive. Background: pairings of library AAYL51 with three empty control strains gave a value in 21% of cases (median 4.54, 5th percentile 3.26). Values in that range, when seen in few replicates, are hard to tell from nonspecific mating. Also given: how often the same scFv was detected with the empty control strains.

With GFTFDDYAMH, GISWNSGSIEYADSVK, AGRGCGYFDY the result was 2.39, 3.32, 2.13 (mean 2.61; controls 3 of 9).
With GFTFDDSAMH, QISWNSGSIRYADSVK, VGRGGGYFDY the result was ND, ND, ND (controls 3 of 9).
With GFTFDDYAMH, GISWNSGSIGIADSVK, VGRKGTYFDY the result was 5.06, ND, ND (controls 3 of 9).
With GFTFDDYAMH, GASWNSGSIGYADSVK, VGRGGGYFGY the result was 2.30, ND, 3.65 (mean 2.97; controls 3 of 9).
With GFTFGDYAMH, GISWNSWSIGYADSVK, VSRGGGYFDY the result was ND, ND, ND (controls 0 of 9).
With GFLFDDYAMH, GISWNSGSIGYAKSVP, VGRGGGYFDY the result was ND, ND, ND (controls 0 of 9).
With GFTFDDYAMH, GCSWNSGSIGYADSVK, VGMGGGYFDY the result was 4.21, 4.51, ND (mean 4.36; controls 6 of 9).
With MFTFDDYAMH, GISWNSGSIGYAPSVW, VGRGGGYFDY the result was 5.31, ND, ND (controls 1 of 9).
With GFTFDDYAMH, GISSNSGSIGYADSVK, NGRGGVYFDY the result was 5.93, ND, ND (controls 2 of 9).
With GFTFDDYAPH, GISWNSPSDGYADSVK, VGRGGGYFDY the result was 4.14, ND, ND (controls 0 of 9).
With YFCFDDYAMH, GISWNSGSIGYAESVK, VGRGGGYFDY the result was 3.46, 4.22, ND (mean 3.84; controls 0 of 9).
With GFTFCDYAMH, GISWNSGSIGYADSSK, TGRGGGYFDY the result was 4.84, 5.44, 5.60 (mean 5.29; controls 6 of 9).
With GFTFDDYAMH, GISWNSGSIGYADSEM, VGRGGGYFDY the result was ND, ND, ND (controls 0 of 9).
With GFTFDDYAMH, GISWRSGSIGYADSVK, VGRGHGYFDY the result was ND, ND, ND (controls 0 of 9).
With GFWFDDYAMH, GISWNSDSIGYADSVK, FGRGGGYFDY the result was ND, ND, ND (controls 0 of 9).
With GFTFDDYAMH, GISWNSGSGGYADTVK, VGDGGGYFDY the result was 6.02, 5.88, 5.32 (mean 5.74; controls 3 of 9).
With GFTFDDYAFH, GISWNSGSSGYALSVK, VGRGGGYFDY the result was 4.87, 4.55, 5.54 (mean 4.98; controls 3 of 9).
With WFTFDDYAMH, GISWNSGSIGHAVSVK, VGRGGGYFDY the result was ND, ND, ND (controls 1 of 9).
With GFTFDDYAMQ, GISWNSGSIIYADSEK, VGRGGGYFDY the result was ND, ND, ND (controls 1 of 9).
With GFDFGDYAMH, GISWNSGSIGYADSVN, VGRGGGYFDY the result was 1.06, 1.39, 1.21 (mean 1.22; controls 0 of 9).
With GFTFDHYAQH, GISWNSGSIGYADSVK, VGRGGFYFDY the result was ND, ND, ND (controls 2 of 9).
With GFTFDDYCMH, GISWNSGSIEYADSVK, VGRGGGYFDM the result was 3.82, ND, 5.52 (mean 4.67; controls 4 of 9).
With GFTFDDYAMH, GISWNSGSIGYADSVK, VGRIRGYFDY the result was 4.62, 5.01, 6.05 (mean 5.23; controls 7 of 9).
With GFTFDDYAMH, GISWNSGSIGYADSVK, VGRGEGYFDA the result was 3.15, 3.11, ND (mean 3.13; controls 0 of 9).
With GFTFEDYAMH, GISWNSGSIGYADAVK, VGRGGGYFDY the result was 0.77, 0.67, 0.16 (mean 0.54; controls 0 of 9).
With GFVFDDYAMH, GISWNSGSIGYADSVK, VERGGGYNDY the result was 3.82, 3.01, 3.03 (mean 3.29; controls 2 of 9).
With GFTFIDYAMH, GISWNSGSIGDADSVK, VGRGFGYFDY the result was 5.69, 5.62, 4.93 (mean 5.41; controls 5 of 9).
With YFTQDDYAMH, GISWNSGSIGYADSVK, VGRGRGYFDY the result was 5.51, ND, ND (controls 2 of 9).
With GFTFDDYAMH, GISWNSGSIGYADSVK, VGRGSGYFDD the result was ND, ND, ND (controls 1 of 9).
With GFTFHDYAMH, GISWNSGSIGYADSVK, VGRGGGYFDP the result was 2.61, 2.25, 2.36 (mean 2.41; controls 3 of 9).

Extract of 4 entries:

CDR-H1	CDR-H2	CDR-H3	replicates, log10 nM	log10 Kd (nM), mean	empty controls
GFTFDDYCMH	GISWNSGSIEYADSVK	VGRGGGYFDM	3.82, ND, 5.52	4.67	4/9
YFTQDDYAMH	GISWNSGSIGYADSVK	VGRGRGYFDY	5.51, ND, ND	5.51	2/9
GFTFDDYAMQ	GISWNSGSIIYADSEK	VGRGGGYFDY	ND, ND, ND	ND	1/9
GFTFDDYAMH	GISWNSGSIGYADSVK	VGRGEGYFDA	3.15, 3.11, ND	3.13	0/9

In this assay the parent's reference entry averaged 1.86; its copy inside this library read 0.88.